Experimental data as given in PubChem BioAssay (NCI).
This is a selection; strong and weak results do not stand in their true shares. The source made the active and inactive calls. Rule as the data show it: active = growth inhibition above about 70%; inactive = the rest.

Columns and labels:
[1] = NCI Yeast Anticancer Drug Screen. Data for the rad50 strain (AID 155);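 also: 0% = growth of vehicle-only cultures of the same strain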; details: S. cerevisiae rad50 strain growth inhibition; at 50.0 µM; hits give high values
[2] = NCI Yeast Anticancer Drug Screen. Data for the mec2-1 strain (AID 157); details: S. cerevisiae mec2-1 strain, at 50.0 µM, hits give high values
[3] = NCI Yeast Anticancer Drug Screen. Data for the sgs1 mgt1 strain (AID 161);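 also: 0% = growth of cultures given vehicle only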; details: S. cerevisiae sgs1 mgt1 strain, at 50.0 µM, hits give high values
[4] = NCI Yeast Anticancer Drug Screen. Data for the cln2 rad14 strain (AID 165);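 also: 0% = growth equal to vehicle treated cultures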; details: S. cerevisiae cln2 rad14 strain, at 50.0 µM, hits give high values
[5] = NCI Yeast Anticancer Drug Screen. Data for the bub3 strain (AID 167); details: S. cerevisiae bub3 mutant strain, at 50.0 µM, hits give high values
[6] = NCI Yeast Anticancer Drug Screen. Data for the mlh1 rad18 strain (AID 175); details: S. cerevisiae mlh1 rad18 strain growth inhibition; at 50.0 µM; hits give high values

Measured: growth inhibition

CC(C)(C)C1CNP(=O)(N(CCCl)CCCl)OC1 (stereo not given)
inactive: [1] -4.45% | [2] -9.55% | [3] -22.1% | [4] -14.2% | [5] 4.35% | [6] 15%

ClP(Cc1ccccc1)Cc1ccccc1
inactive: [1] -2.3% | [2] -8.3% | [3] -12.3% | [4] 1.65% | [5] -13.8% | [6] 15%

[N-]=[N+]=NCC(O)CN=[N+]=[N-] (stereo not given)
inactive: [1] 0.9% | [2] -14.8% | [3] -9.45% | [4] 5.8% | [5] 4.05% | [6] -0.3%

ClCCNC1c2ccccc2CC1Cl (stereo not given)
inactive: [1] -7.65% | [2] 0.1% | [3] -10.8% | [4] -19.9% | [5] -6.6% | [6] -15.4%

O=C(CBr)c1ccc([N+](=O)[O-])cc1
inactive: [1] -11.2% | [2] 6.9% | [3] 3.15% | [4] -18.4% | [5] -16.1% | [6] -4.7%

ClCCN1Cc2ccccc2C1
inactive: [1] 39.1% | [2] -8.2% | [3] 11.7% | [4] 2.15% | [5] -2.1% | [6] 30%

C/C(CCl)=N\NC1=NC(C)(CCl)P(=O)(Nc2ncn[nH]2)S1 (stereo not given)
inactive: [1] -1.35% | [2] -13.3% | [3] -11.7% | [4] 18.1% | [5] -20.4% | [6] -13.2%

ClP1(Cl)=NP(Cl)(Cl)=NP(Cl)(Cl)=N1
inactive: [1] 12.6% | [2] 10.2% | [3] -15.8% | [4] -24.2% | [5] -2.3% | [6] 35.6%

Cc1cc(N(CCCl)CCCl)ccc1C=NCCO
inactive: [1] 0.6% | [2] -4.65% | [3] 6.9% | [4] 1.85% | [5] 10.8% | [6] 26.8%

CCCCCCCNP(=S)(Cl)Cl
inactive: [1] 6.35% | [2] -7.05% | [3] 5.95% | [4] -3.7% | [5] -1.35% | [6] 39.4%

CCCNC(=O)c1ccc(N(CCCl)CCCl)cc1
inactive: [1] 12.7% | [2] 11.8% | [3] -39.8% | [4] -22.1% | [5] -38.2% | [6] -16.3%

O=[N+]([O-])c1cc([As](=O)(O)O)ccc1Cc1ccc([As](=O)(O)O)cc1[N+](=O)[O-]
inactive: [1] -12.9% | [2] 16.8% | [3] -12.2% | [4] -10.7% | [5] -18.2% | [6] 4.65%

Cc1c[nH]c(=O)[nH]c1=O
inactive: [3] -9.85% [middle of 4 runs]

Clc1ccc(CNCCI)cc1Cl
inactive: [1] 16.3% | [2] -2.7% | [3] 31.9% | [4] -6.2% | [5] 21% | [6] 4.75%

ClCCNCc1ccccc1
inactive: [1] 46.5% | [2] -14.7% | [3] 5.7% | [4] 7.25% | [5] 5.25% | [6] 27.1%

C=CCCC[P+](CC)(c1ccccc1)c1ccccc1
inactive: [1] 64.3% | [2] 20.6% | [3] 10.4% | [4] -15.4% | [5] 20.1% | [6] 3.8%

O=P(O)(O)F
inactive: [1] -7.8% | [2] -21.4% | [3] -13.9% | [4] -25.4% | [5] -0.3% | [6] -23.9%

[N-]=[N+]=Nc1ccc(F)c([N+](=O)[O-])c1
inactive: [1] -4.75% | [2] -1.8% | [3] -2.75% | [4] 6.3% | [5] -12.3% | [6] 1.05%

CN(C)CC1C2C=CC(C2)C1COCC1C2C=CC(C2)C1CN(C)C (stereo not given)
inactive: [1] -19.4% | [2] 0.25% | [3] -13.5% | [4] -9.6% | [5] -3.7% | [6] -11.5%

CCN(CC)C(=O)Oc1ccc(COC(C)=O)nc1
inactive: [1] -29.2% | [2] -24.6% | [3] -8.3% | [4] 3.35% | [5] -22.4% | [6] -10.1%

O=P(OCCCO)(N(CCCl)CCCl)N1CC1 (stereo not given)
inactive: [1] 12.5% | [2] 8.5% | [3] 12.3% | [4] 6% | [5] 2.6% | [6] 3.55%

NC1=NC(c2ccccc2[N+](=O)[O-])P(=O)(Nc2ncccn2)S1 (stereo not given)
inactive: [1] -9.55% | [2] -27.6% | [3] -24.9% | [4] -3.1% | [5] -30.3% | [6] -37.1%

CCCCOc1ccc(N(CCCl)CCCl)cc1
inactive: [1] -1.2% | [2] -0.2% | [3] 6.55% | [4] 7.9% | [5] -4.05% | [6] -48.5%

CN(C)C(=O)Oc1ccc([N+](C)(C)C)cc1OC(=O)N(C)C
inactive: [1] 0.35% | [2] -1.05% | [3] 0.55% | [4] 6.95% | [5] -0.85% | [6] -20.6%

CCOP(OCC)OCc1ccccc1
inactive: [1] 17.6% | [2] -4.05% | [6] -4.8%

CCCCNC(=NC)NP(=O)(NCCCC)NCCCC
inactive: [1] 15.2% | [2] 6.25% | [3] 8.6% | [4] 6.05% | [5] -3.95% | [6] -8.2%

O=C(O)C1COP(=O)(N(CCCl)CCCl)N1 (stereo not given)
inactive: [1] -36.1% | [2] -15.8% | [3] 2.6% | [4] -22.5% | [5] 6.95% | [6] 10.1%

CN(C)C(=O)Oc1ccc(/C=N/O)[n+](C)c1
inactive: [1] -33% | [2] -25.6% | [3] -11% | [4] 14.2% | [5] -25.4% | [6] -17.9%

CCC(C)OP(OC(C)CC)OC(C)CC (stereo not given)
inactive: [1] -10.2% | [2] -19.4% | [3] -16.9% | [4] -14.9% | [5] 0.45% | [6] -16.4%

O=C1C(Cl)=C(NCCCl)C(=O)C(Cl)=C1NCCCl
inactive: [1] -3% | [2] 20.9% | [3] 10.4% | [4] -4.05% | [5] 16.6% | [6] 7.1%

O=[N+]([O-])c1ccc(NP(=O)(Oc2ccccc2)Oc2ccccc2)nc1
inactive: [1] 3.15% | [2] -4.35% | [3] 9.15% | [4] -55.4% | [5] 14.9% | [6] 0.55%

CCN(CC)[P+](Oc1ccccc1)(N(CC)CC)N(CC)CC
inactive: [1] 52% | [2] 30.9% | [3] 47.5% | [4] 21.1% | [5] 18.4% | [6] 42.2%

O=C(N=Nc1ccc([N+](=O)[O-])cc1[N+](=O)[O-])NNc1ccc([N+](=O)[O-])cc1[N+](=O)[O-]
inactive: [1] 27% | [2] 36.1% | [3] 38% | [4] 30.9% | [5] 42.4% | [6] 51.1%

CC(C)([N+](=O)[O-])C(C)(C)[N+](=O)[O-]
inactive: [1] -12.7% | [2] 5.5% | [3] 0.35% | [4] -6.15% | [5] -2.9% | [6] 1.5%

N/C(=N\[N+](=O)[O-])NNC=O
inactive: [1] 1.05% | [2] -8.25% | [3] -14.1% | [4] -51.1% | [5] 8.5% | [6] 3%

O=[As]c1ccc(S(=O)(=O)NCCO)cc1 (stereo not given)
inactive: [1] 5.4% | [2] -22.4% | [3] -25.3% | [4] -5.2% | [5] -11.2% | [6] -17.4%

O=[N+]([O-])c1ccc(Nc2ccc(Oc3ccc([N+](=O)[O-])cc3[N+](=O)[O-])cc2)c([N+](=O)[O-])c1
inactive: [1] -10.7% | [2] -11.1% | [3] -16.6% | [4] 6.6% | [5] -8.15% | [6] -20.4%

Cc1c([N+](=O)[O-])c2c([N+](=O)[O-])cc([N+](=O)[O-])cc2n1C
inactive: [1] 32.3% | [2] 5.85% | [3] 36.1% | [4] 15% | [5] 18.9% | [6] 54.3%
